Consider one compound from ChEMBL document CHEMBL1128368, “Synthesis and serotonergic activity of N,N-dimethyl-2-[5-(1,2,4-triazol-1-ylmethyl)-1H-indol-3-yl]ethylamine and analogues: potent agonists for 5-HT1D receptors” (J Med Chem, 1995).

The chains behind the UniProt entries cited, without tags or fusion partners.
UniProt P08908, whole entry: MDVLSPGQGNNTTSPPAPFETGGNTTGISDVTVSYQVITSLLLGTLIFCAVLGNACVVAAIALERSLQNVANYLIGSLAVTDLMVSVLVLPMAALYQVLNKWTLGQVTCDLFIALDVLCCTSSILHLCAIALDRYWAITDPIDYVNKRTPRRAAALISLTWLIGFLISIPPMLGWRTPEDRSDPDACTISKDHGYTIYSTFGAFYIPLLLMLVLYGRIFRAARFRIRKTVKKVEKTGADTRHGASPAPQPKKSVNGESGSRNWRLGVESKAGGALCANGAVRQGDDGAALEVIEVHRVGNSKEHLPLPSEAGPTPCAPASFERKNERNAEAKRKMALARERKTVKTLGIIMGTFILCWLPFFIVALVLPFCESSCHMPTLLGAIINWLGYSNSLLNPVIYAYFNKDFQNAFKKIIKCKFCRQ
UniProt P14842, whole entry: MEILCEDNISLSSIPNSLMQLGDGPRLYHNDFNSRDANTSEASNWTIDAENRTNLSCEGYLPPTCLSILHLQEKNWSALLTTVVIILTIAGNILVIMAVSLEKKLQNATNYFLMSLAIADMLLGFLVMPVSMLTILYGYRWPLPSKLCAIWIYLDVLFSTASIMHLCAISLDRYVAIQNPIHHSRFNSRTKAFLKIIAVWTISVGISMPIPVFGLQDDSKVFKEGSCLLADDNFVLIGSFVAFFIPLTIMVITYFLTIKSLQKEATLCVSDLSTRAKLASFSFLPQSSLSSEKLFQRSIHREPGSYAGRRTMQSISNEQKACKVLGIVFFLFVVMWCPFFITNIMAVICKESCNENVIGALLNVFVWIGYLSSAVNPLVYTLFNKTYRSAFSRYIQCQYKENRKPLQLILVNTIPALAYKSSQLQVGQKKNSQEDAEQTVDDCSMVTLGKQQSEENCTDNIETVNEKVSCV

Test [1] deals with 5-hydroxytryptamine receptor 1A (Homo sapiens, UniProt P08908). Description: (§1) Binding activity radioligand.
Test [2] addresses 5-hydroxytryptamine receptor 2A (Rattus norvegicus, UniProt P14842). The test is described as §1.

Structures are written as SMILES.

By IC50 is commonly meant the point on the concentration scale where inhibition reaches its midpoint. Lower therefore signals higher potency. `CNS(=O)(=O)Cc1ccc2[nH]cc(CCN(C)C)c2c1`: the IC50 in test [1] is 398 nM; in test [2], over 10000 nM.
